From patent US9302989B2 (priority 2010, dated 2016) come the findings set out here.

Chains of the proteins cited; added tags and fusions are not shown. Lines headed by an entry give the natural chain unless they say otherwise; changes in a name come on top.
UniProt P43490: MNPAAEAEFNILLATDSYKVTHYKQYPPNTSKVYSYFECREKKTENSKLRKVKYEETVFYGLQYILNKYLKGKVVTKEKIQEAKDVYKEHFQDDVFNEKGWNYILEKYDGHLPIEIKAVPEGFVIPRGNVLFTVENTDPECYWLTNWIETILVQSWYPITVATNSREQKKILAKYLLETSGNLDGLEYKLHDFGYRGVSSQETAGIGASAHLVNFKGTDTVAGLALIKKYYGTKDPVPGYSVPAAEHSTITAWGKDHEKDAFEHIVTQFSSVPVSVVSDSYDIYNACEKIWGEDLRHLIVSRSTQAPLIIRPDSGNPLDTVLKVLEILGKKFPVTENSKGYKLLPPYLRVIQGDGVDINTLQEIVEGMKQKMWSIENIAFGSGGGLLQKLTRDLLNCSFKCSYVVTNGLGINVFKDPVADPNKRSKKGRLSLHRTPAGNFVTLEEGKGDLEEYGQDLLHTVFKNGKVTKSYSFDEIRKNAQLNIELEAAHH

The structures appear in SMILES notation.

As usually defined, the IC50 is the concentration needed to halve the response being measured.

The target of this assay is NAMPT (Homo sapiens (Human), UniProt P43490). As to conditions: read-out: TR-FRET Binding IC50 (μM) probe 1. (In general: TR-FRET usually uses a lanthanide donor and a delayed reading to cut background.)
As for `O=C(N[C@H](CO)c1ccccn1)c1ccc(NC(=O)N2Cc3ccncc3C2)cc1` [Example 445, N-[4-({[(1S)-2-hydroxy-1-pyridin-2-ylethyl]amino}carbonyl)phenyl]-1,3-dihydro-2H-pyrrolo[3,4-c]pyridine-2-carboxamide], the IC50 was 0.0141 µM.
Consider `Cc1ccc2c(c1)CN(C(=O)Nc1ccc(C(=O)N3CCN(c4ccccn4)CC3)cc1)C2` [Example 11, 5-methyl-N-(4-{[4-(pyridin-2-yl)piperazin-1-yl]carbonyl}phenyl)-1,3-dihydro-2H-isoindole-2-carboxamide], for which the IC50 worked out at 0.00618 µM.
Consider `NC(=O)C1CCN(C(=O)c2ccc(NC(=O)N3Cc4ccccc4C3)cc2)CC1` [Example 225, N-{4-[(4-carbamoylpiperidin-1-yl)carbonyl]phenyl}-1,3-dihydro-2H-isoindole-2-carboxamide], for which the half-inhibitory concentration (IC50) was 0.333 µM.
In the case of `O=C(NCc1cccc(F)c1)c1ccc(NC(=O)N2Cc3ccccc3C2)cc1` [Example 23, N-{4-[(3-fluorobenzyl)carbamoyl]phenyl}-1,3-dihydro-2H-isoindole-2-carboxamide] it was 0.0119 µM; in that of `O=C(NCc1ccc(SC(F)(F)F)cc1)c1ccc(NC(=O)N2Cc3ccccc3C2)cc1` [Example 145, N-[4-({4-[(trifluoromethyl)thio]benzyl}carbamoyl)phenyl]-1,3-dihydro-2H-isoindole-2-carboxamide], 0.0692 µM.
To `O=C(NCCCc1ccccc1)c1ccc(NC(=O)N2Cc3cccc(Cl)c3C2)cc1` [Example 126, 4-chloro-N-{4-[(3-phenylpropyl)carbamoyl]phenyl}-1,3-dihydro-2H-isoindole-2-carboxamide] belongs 0.0537 µM.
To `CC1CCCN1C(=O)c1ccc(NC(=O)N2Cc3ccccc3C2)cc1` (centres unmarked) [Example 254, N-{4-[(2-methylpyrrolidin-1-yl)carbonyl]phenyl}-1,3-dihydro-2H-isoindole-2-carboxamide] belongs 0.877 µM.
In the case of `CCCNC(=O)c1ccc(NC(=O)N2Cc3ccc(C(O)CO)cc3C2)cc1` (centres unmarked) [Example 450, 5-(1,2-dihydroxyethyl)-N-{4-[(propylamino)carbonyl]phenyl}-1,3-dihydro-2H-isoindole-2-carboxamide], the concentration for half-maximal inhibition (IC50) was determined as 1.03 µM.
`O=C(NCCc1cccs1)c1ccc(NC(=O)N2Cc3ccc(F)cc3C2)cc1` [Example 61, 5-fluoro-N-(4-{[2-(2-thienyl)ethyl]carbamoyl}phenyl)-1,3-dihydro-2H-isoindole-2-carboxamide]: the IC50 stood at 0.0225 µM.
For `CCCN(C)C(=O)c1ccc(NC(=O)N2Cc3ccccc3C2)cc1` [Example 267, N-{4-[methyl(propyl)carbamoyl]phenyl}-1,3-dihydro-2H-isoindole-2-carboxamide], the IC50 is 2.75 µM.
With `CC1CCN(C(=O)c2ccc(NC(=O)N3Cc4ccccc4C3)cc2)CC1` [Example 112, N-{4-[(4-methylpiperidin-1-yl)carbonyl]phenyl}-1,3-dihydro-2H-isoindole-2-carboxamide], the 50% inhibitory concentration (IC50) amounted to 0.0445 µM.
Take `Cc1ccc2c(c1)CN(C(=O)Nc1ccc(C(=O)NCCCc3ccccc3)cc1)C2` [Example 137, 5-methyl-N-{4-[(3-phenylpropyl)carbamoyl]phenyl}-1,3-dihydro-2H-isoindole-2-carboxamide]: the IC50 was 0.0629 µM.
To `O=C(Nc1ccc(C(=O)N2CCN(CC3CCCCC3)CC2)cc1)N1Cc2ccccc2C1` [Example 198] belongs 0.179 µM; to `CCCC(=O)N1CC=C(c2ccc(NC(=O)N3Cc4ccccc4C3)nc2)CC1` [Example 452, N-(1′-butyryl-1′,2′,3′,6′-tetrahydro-3,4′-bipyridin-6-yl)-1,3-dihydro-2H-isoindole-2-carboxamide], 0.0512 µM.
In the case of `O=C(Nc1cccc(O)c1)c1ccc(NC(=O)N2Cc3ccccc3C2)cc1` [Example 182, N-{4-[(3-hydroxyphenyl)carbamoyl]phenyl}-1,3-dihydro-2H-isoindole-2-carboxamide], the half-inhibitory concentration (IC50) was 0.136 µM.
Turning to `COCC(C)NC(=O)c1ccc(NC(=O)N2Cc3ccccc3C2)cc1` (centres unmarked) [Example 243, N-{4-[(1-methoxypropan-2-yl)carbamoyl]phenyl}-1,3-dihydro-2H-isoindole-2-carboxamide], the IC50 was 0.543 µM.
In the case of `CC(C)(C)OC(=O)NC1CCN(C(=O)c2ccc(NC(=O)N3Cc4ccccc4C3)cc2)CC1` [Example 195, tert-butyl (1-{4-[(1,3-dihydro-2H-isoindol-2-ylcarbonyl)amino]benzoyl}piperidin-4-yl)carbamate], the half-maximal inhibitory concentration (IC50) turned out to be 0.172 µM.
In the case of `CC(=O)c1ccc(N2CCN(C(=O)c3ccc(NC(=O)N4Cc5ccccc5C4)cc3)CC2)cc1` [Example 56, N-(4-{[4-(4-acetylphenyl)piperazin-1-yl]carbonyl}phenyl)-1,3-dihydro-2H-isoindole-2-carboxamide], the 50% inhibitory concentration (IC50) was found to be 0.0203 µM.
`CCCCCCC(=O)Nc1ccc(NC(=O)N2Cc3ccccc3C2)cc1` [Example 306, N-[4-(heptanoylamino)phenyl]-1,3-dihydro-2H-isoindole-2-carboxamide]: the half-maximal inhibitory concentration (IC50) came to 0.0133 µM.
Regarding `CC(C)(C)OC(=O)N1CCN(c2ccc(NC(=O)N3Cc4ccccc4C3)cc2)CC1` [Example 341, tert-butyl 4-{4-[(1,3-dihydro-2H-isoindol-2-ylcarbonyl)amino]phenyl}piperazine-1-carboxylate], the concentration for half-maximal inhibition (IC50) is 0.101 µM.
In the case of `CC(C)N(CCC(=O)O)C(=O)c1ccc(NC(=O)N2Cc3ccccc3C2)cc1` [Example 266, N-{4-[(1,3-dihydro-2H-isoindol-2-ylcarbonyl)amino]benzoyl}-N-isopropyl-beta-alanine], the IC50 came to 2.29 µM.
In the case of `COc1cccc(N2CCN(C(=O)c3ccc(NC(=O)N4Cc5ccccc5C4)cc3)CC2)c1` [Example 55, N-(4-{[4-(3-methoxyphenyl)piperazin-1-yl]carbonyl}phenyl)-1,3-dihydro-2H-isoindole-2-carboxamide], the IC50 is 0.0202 µM.
For `CC(C)CCn1cc(-c2ccc(NC(=O)N3Cc4ccccc4C3)c(F)c2)cn1` [Example 329, N-{2-fluoro-4-[1-(3-methylbutyl)-1H-pyrazol-4-yl]phenyl}-1,3-dihydro-2H-isoindole-2-carboxamide], the IC50 came out at 2.02 µM.
Consider `O=C(Nc1ccc(N2CCN(C(=O)c3ccccc3)CC2)cc1)N1Cc2ccccc2C1` [Example 336, N-[4-(4-benzoylpiperazin-1-yl)phenyl]-1,3-dihydro-2H-isoindole-2-carboxamide], for which the IC50 amounted to 0.0259 µM.
As for `O=C(NCCCCC1CCN(C(=O)c2cccnc2)CC1)N1Cc2ccccc2C1` [Example 350, N-{4-[1-(pyridin-3-ylcarbonyl)piperidin-4-yl]butyl}-1,3-dihydro-2H-isoindole-2-carboxamide], the IC50 was determined as 0.00825 µM.
In the case of `O=C(NC[C@H]1CCCO1)c1ccc(NC(=O)N2Cc3ccncc3C2)cc1` [Example 427, N-(4-{[(2R)-tetrahydrofuran-2-ylmethyl]carbamoyl}phenyl)-1,3-dihydro-2H-pyrrolo[3,4-c]pyridine-2-carboxamide], the IC50 came to 0.0154 µM.
Regarding `COc1ccc(OC)c(NC(=O)c2ccc(NC(=O)N3Cc4ccccc4C3)cc2)c1` [Example 157, N-{4-[(2,5-dimethoxyphenyl)carbamoyl]phenyl}-1,3-dihydro-2H-isoindole-2-carboxamide], the concentration for half-maximal inhibition (IC50) worked out at 0.0846 µM.
On to `O=C(CCNC(=O)N1Cc2ccccc2C1)NCCCc1ccccc1` [Example 363, N-{3-oxo-3-[(3-phenylpropyl)amino]propyl}-1,3-dihydro-2H-isoindole-2-carboxamide], for which the half-inhibitory concentration (IC50) amounted to 2.04 µM.
As to `O=C(Nc1ccc(C(=O)N2CCC(C(F)(F)F)CC2)cc1)N1Cc2ccccc2C1` [Example 160, N-(4-{[4-(trifluoromethyl)piperidin-1-yl]carbonyl}phenyl)-1,3-dihydro-2H-isoindole-2-carboxamide], the IC50 worked out at 0.0861 µM.
On to `O=C(Nc1ccc(C(=O)N2CCN(C3CCCCC3)CC2)cc1)N1Cc2ccccc2C1` [Example 206, N-{4-[(4-cyclohexylpiperazin-1-yl)carbonyl]phenyl}-1,3-dihydro-2H-isoindole-2-carboxamide], for which the IC50 amounted to 0.216 µM.
As for `O=C(Nc1ccc(F)cc1)c1ccc(NC(=O)N2Cc3ccccc3C2)cc1` [Example 189, N-{4-[(4-fluorophenyl)carbamoyl]phenyl}-1,3-dihydro-2H-isoindole-2-carboxamide], the IC50 was 0.149 µM.
For `CCCOCCNC(=O)c1ccc(NC(=O)N2Cc3ccccc3C2)cc1` [Example 107, N-{4-[(2-propoxyethyl)carbamoyl]phenyl}-1,3-dihydro-2H-isoindole-2-carboxamide], the 50% inhibitory concentration (IC50) came out at 0.0408 µM.
As for `COc1cc(NC(=O)c2ccc(NC(=O)N3Cc4ccccc4C3)cc2)cc(OC)c1OC` [Example 111, N-{4-[(3,4,5-trimethoxyphenyl)carbamoyl]phenyl}-1,3-dihydro-2H-isoindole-2-carboxamide], the IC50 was 0.044 µM.
In the case of `O=C(CCC(F)(F)F)Nc1ccc(NC(=O)N2Cc3ccccc3C2)cc1` [Example 291, N-{4-[(4,4,4-trifluorobutanoyl)amino]phenyl}-1,3-dihydro-2H-isoindole-2-carboxamide] it was 0.0277 µM; in that of `CCCCOCCCNC(=O)c1ccc(NC(=O)N2Cc3ccccc3C2)cc1` [Example 79, N-{4-[(3-butoxypropyl)carbamoyl]phenyl}-1,3-dihydro-2H-isoindole-2-carboxamide], 0.0295 µM; in that of `COc1cccc(CNC(=O)c2ccc(NC(=O)N3Cc4ccccc4C3)cc2)c1OC` [Example 13, N-{4-[(2,3-dimethoxybenzyl)carbamoyl]phenyl}-1,3-dihydro-2H-isoindole-2-carboxamide], 0.00807 µM.
`C[C@@H](O)CNC(=O)c1ccc(NC(=O)N2Cc3ccccc3C2)cc1` [Example 193, N-(4-{[(2R)-2-hydroxypropyl]carbamoyl}phenyl)-1,3-dihydro-2H-isoindole-2-carboxamide]: the IC50 was 0.164 µM.
Consider `O=C(NCCCc1ccccc1)c1ccc(NC(=O)N2Cc3ccccc3C2)nc1` [Example 369, N-{5-[(3-phenylpropyl)carbamoyl]pyridin-2-yl}-1,3-dihydro-2H-isoindole-2-carboxamide], for which the IC50 stood at 0.00656 µM.
